These binders were tested against H3.1-mCherry (human) (assay: FRET or BRET; acceptor-bleaching FRET at kinetochores of transfected human cells (HeLa, HEp-2, U2OS), in vivo or in situ; donor EGFP, acceptor mCherry; E_FRET of a bleached region compared with EVAR of an unbleached region). Conditions: remark: other sources report otherwise.

| mean E FRET % [%] | ΔE % [%] | Binder |
| --- | --- | --- |
| 3.03 | 4.45 | CENP-T-EGFP (natural protein) MADHNPDSDSTPRTLLRRVLDTADPRTPRRPRSARAGARRALLETASPRKLSGQTRTIARGRSHGARSVGRSAHIQASGHLEEQTPRTLLKNILLTAPESSILMPESVVKPVPAPQAVQPSRQESSCGSLELQLPELEPPTTLAPGLLAPGRRKQRLRLSVFQQGVDQGLSLSQEPQGNADAS[about 40 residues not printed]AVDVGAFLRDLRDTSLAPPNIVLEDTQPFSQPMVGSPNVYHSLPCTPHTGAEDAEQAAGRKTQSSGPGLQKNSPGKPAQFLAGEAEEVNAFALGFLSTSSGVSGEDEVEPLHDGVEEAEKKMEEEGVSVSEMEATGAQGPSRVEEAEGHTEVTEAEGSQGTAEADGPGASSGDEDASGRAASPESASSTPESLQARRHHQFLEPAPAPGAAVLSSEPAEPLLVRHPPRPRTTGPRPRQDPHKAGLSHYVKLFSFYAKMPMERKALEMVEKCLDKYFQHLCDDLEVFAAHAGRKTVKPEDLELLMRRQGLVTDQVSLHVLVERHLPLEYRQLLIPCAYSGNSVFPAQ |
| 3.58 | 4.99 | EGFP-CENP-M, Q9NSP4 1-180 (natural protein) MSVLRPLDKLPGLNTATILLVGTEDALLQQLADSMLKEDCASELKVHLAKSLPLPSSVNRPRIDLIVFVVNLHSKYSLQNTEESLRHVDASFFLGKVCFLATGAGRESHCSIHRHTVVKLAHTYQSPLLYCDLEVEGFRATMAQRLVRVLQICAGHVPGVSALNLLSLLRSSEGPSLEDL |
| 2.91 | 3.15 | CENP-M-EGFP, Q9NSP4 1-180 (natural protein) MSVLRPLDKLPGLNTATILLVGTEDALLQQLADSMLKEDCASELKVHLAKSLPLPSSVNRPRIDLIVFVVNLHSKYSLQNTEESLRHVDASFFLGKVCFLATGAGRESHCSIHRHTVVKLAHTYQSPLLYCDLEVEGFRATMAQRLVRVLQICAGHVPGVSALNLLSLLRSSEGPSLEDL |

Source: publication PMC4394509
